Screening data: PubChem BioAssay, ICCB-Longwood Screening Facility, Harvard Medical School
In the library only some 0.7% were active in any assay of this set; here they are far more common.
GIV Gai3 FP – blocks GIV peptide binding to rat Galpha-i3. P08753. Galpha-i3/FITC-GIV peptide fluorescence polarization, 90 min; hits give low values; scaled: aluminum fluoride 0%, vehicle 100%. percent of control (FP), % (concentration not given with the values). actives 0.42% (n = 210,000). AID 1224905;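 active = replicate mean at 85% of control or lower, very high polarization wells dropped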;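 also: wells of about 15 µL received 100 nL stock; the first replicate is given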
Sa growth 42C – blocks Staphylococcus aureus growth; S. aureus RN4220 growth, OD600, 20 h, 42 °C; active compounds read low; relative growth, % (concentration not given with the values); actives 0.53% (n = 170,000); AID 720641;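 active = relative growth at most 50% at the other temperature and 20+ points below 30 °C, or under 10% at both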
HCMV UL50-53 inh – cytomegalovirus nuclear egress complex inhibition; actives 0.15% (n = 190,000); AID 1918969; HTRF UL50-UL53 interaction, normalized percent inhibition; inhibition, % (concentration not given with the values); in the data active = inhibition above about 27%, passing the limit was not always enough
GIV Gai FP conf – GIV-Galpha-i3 inhibition, FP confirmation; FITC-GIV peptide binding to Galphai3, fluorescence polarization; active compounds read low; actives 38% (n = 580); fluorescence polarization, mP at 100 µM; shares compounds with GIV Gai3 FP; AID 1259350;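 active = inhibition score of 15 or more, meaning 100 minus mean polarization as percent of control over three replicates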;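 note: lower mP means peptide displaced from Galphai3 so more inhibition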
GIV-Gai AS conf – GIV-Galpha-i3 inhibition, AlphaScreen confirmation; shares compounds with GIV Gai3 FP; AlphaScreen Galphai3-GIV binding, purified proteins, 90 min; active compounds read low; AlphaScreen counts at 100 µM; actives 39% (n = 580); AID 1259351;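 active = inhibition score at or above a set limit, where the score is 100 minus the three-replicate mean percent of control signal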
An asterisk follows results filed as active.

What do the screens show for `O=C(NCCCO)Nc1ccc(Cl)cc1`?
GIV Gai3 FP: 99; Sa growth 42C: 118; HCMV UL50-53 inh: -5

Results for CCc1nnc(NC(=O)c2cc(=O)c3cc(F)ccc3o2)s1 ?
GIV Gai3 FP: 95; HCMV UL50-53 inh: -17

What do the screens show for `CCOc1ccc2ccccc2c1/C=C(\C#N)C(=O)NCc1ccco1`?
GIV Gai3 FP: 100; Sa growth 42C: 83; HCMV UL50-53 inh: -26

Results for N#C/C(=C\c1c(Oc2ccccc2)nc2ccccn2c1=O)C(=O)NCc1ccco1 ?
GIV Gai3 FP: 81*; Sa growth 42C: 87; HCMV UL50-53 inh: -55; GIV Gai FP conf: 76; GIV-Gai AS conf: 31816

Results for CC(NC(=O)CSc1nnnn1C)c1ccccc1 (stereo not drawn) ?
Sa growth 42C: 97; HCMV UL50-53 inh: -3

How did Cn1nnnc1SCC(=O)NC1Cc2ccccc2C1 do in these assays?
GIV Gai3 FP: 87; Sa growth 42C: 96; HCMV UL50-53 inh: -12; GIV Gai FP conf: 69; GIV-Gai AS conf: 47713

How did Cc1cccc(-c2csc(-c3nc(-c4cccnc4)no3)c2-n2cccc2)c1 do in these assays?
GIV Gai3 FP: 101; HCMV UL50-53 inh: -14

What do the screens show for `C(=N\n1cnnc1)/c1cccc(/C=N/n2cnnc2)c1`?
GIV Gai3 FP: 107; Sa growth 42C: 110; HCMV UL50-53 inh: -6

What do the screens show for `O=C(NCc1cccc(Cl)c1)c1cc2ccccn2c1`?
GIV Gai3 FP: 76*; GIV Gai FP conf: 89; GIV-Gai AS conf: 9777*

What do the screens show for `O=C(NCc1cccc(Cl)c1)c1ccc2c(c1)N(Cc1ccccc1)CCS2`?
GIV Gai3 FP: 104; HCMV UL50-53 inh: -25

Nothing new here: 4 of the compounds above.
What do the screens show for `CCOc1ccc2ccccc2c1/C=C(\C#N)C(=O)NCc1ccco1`?
GIV Gai3 FP: 100; Sa growth 42C: 83; HCMV UL50-53 inh: -26

Results for N#C/C(=C\c1c(Oc2ccccc2)nc2ccccn2c1=O)C(=O)NCc1ccco1 ?
GIV Gai3 FP: 81*; Sa growth 42C: 87; HCMV UL50-53 inh: -55; GIV Gai FP conf: 76; GIV-Gai AS conf: 31816

Results for CC(NC(=O)CSc1nnnn1C)c1ccccc1 (stereo not drawn) ?
Sa growth 42C: 97; HCMV UL50-53 inh: -3

How did Cn1nnnc1SCC(=O)NC1Cc2ccccc2C1 do in these assays?
GIV Gai3 FP: 87; Sa growth 42C: 96; HCMV UL50-53 inh: -12; GIV Gai FP conf: 69; GIV-Gai AS conf: 47713

More structures follow:
How did CC(=Nc1ccccc1Br)c1sc2ccccc2c1O do in these assays?
GIV Gai3 FP: 72*; HCMV UL50-53 inh: -23; GIV Gai FP conf: 62; GIV-Gai AS conf: 63874

Results for CC(=Nc1ccccc1O)c1sc2ccccc2c1O ?
GIV Gai3 FP: 127; HCMV UL50-53 inh: -59

Results for O=C(CCN1C(=O)/C(=C/c2ccc3c(c2)OCO3)SC1=S)Nc1nc2ccccc2s1 ?
GIV Gai3 FP: 72*; HCMV UL50-53 inh: -20; GIV Gai FP conf: 88; GIV-Gai AS conf: 35546

What do the screens show for `O=C(CCN1C(=O)/C(=C/c2ccc3c(c2)OCO3)SC1=S)Nc1nc(-c2ccccc2)cs1`?
GIV Gai3 FP: 107; HCMV UL50-53 inh: -37

Results for Cc1cc(NCCCN2CCOCC2)n2nc(C(F)(F)F)c(-c3ccc(F)cc3)c2n1 ?
GIV Gai3 FP: 101; HCMV UL50-53 inh: -19

Results for C/C(=N/N1CCN(c2ccccc2)CC1)c1ccccc1 ?
GIV Gai3 FP: 85*; Sa growth 42C: 92; HCMV UL50-53 inh: -22; GIV Gai FP conf: 79; GIV-Gai AS conf: 33751

Results for C/C=C(\C)CN1CCN(c2ccccc2)CC1 ?
GIV Gai3 FP: 108; Sa growth 42C: 102; HCMV UL50-53 inh: 10

What do the screens show for `N#CCc1ccc(C(F)(F)F)cc1`?
Sa growth 42C: 90; HCMV UL50-53 inh: 4

How did CCCc1[nH]c(=O)cc2cc(OC)c(OC)cc12 do in these assays?
GIV Gai3 FP: 77*; Sa growth 42C: 100; HCMV UL50-53 inh: 42; GIV Gai FP conf: 58; GIV-Gai AS conf: 23102*

How did COc1ccc2c(C)[nH]c(=O)cc2c1 do in these assays?
GIV Gai3 FP: 104; Sa growth 42C: 100

Results for Cc1cccc(NC(=O)c2oc3c(c2C)-c2[nH]ncc2CC3)c1C ?
GIV Gai3 FP: 103; Sa growth 42C: 82; HCMV UL50-53 inh: -7

What do the screens show for `Cc1c(C(=O)NC(C)C)oc2c1-c1[nH]ncc1CC2`?
GIV Gai3 FP: 69*; Sa growth 42C: 83; HCMV UL50-53 inh: 70*; GIV Gai FP conf: 51*; GIV-Gai AS conf: 26222*

Results for Cn1c(=O)cc2c3c(c(Nc4ccccc4)ccc31)C(=O)c1ccccc1-2 ?
GIV Gai3 FP: 101

How did CC(=O)Nc1ccc2c3c(cc(=O)n2C)-c2ccccc2C(=O)c13 do in these assays?
GIV Gai3 FP: 85*; GIV Gai FP conf: 69; GIV-Gai AS conf: 46281

Results for Cc1c2c(n3c(nc4ccccc43)c1C#N)N(C1CCCC1)CC2 ?
GIV Gai3 FP: 101; Sa growth 42C: 91; HCMV UL50-53 inh: -16

How did Cc1c2c(n3c(nc4ccccc43)c1C#N)N(CCN1CCOCC1)CC2 do in these assays?
GIV Gai3 FP: 97; Sa growth 42C: 83; HCMV UL50-53 inh: -27; GIV Gai FP conf: 76; GIV-Gai AS conf: 30989

Results for O=C(O)CCCCn1c(=S)[nH]c2ccsc2c1=O ?
GIV Gai3 FP: 89; Sa growth 42C: 97; HCMV UL50-53 inh: -22

Results for CCC(SC1=Nc2ccccc2C2=NC(CCC(=O)NCc3ccc4c(c3)OCO4)C(=O)N12)C(=O)NC1CCCCC1 (stereo not drawn) ?
GIV Gai3 FP: 102; Sa growth 42C: 96; HCMV UL50-53 inh: 4

What do the screens show for `COc1cccc(N2C(=O)c3ccccc3C2C(=O)NC2CCCC2)c1` (stereo not drawn)?
GIV Gai3 FP: 98; Sa growth 42C: 101; HCMV UL50-53 inh: -14

Results for COc1ccc(/C=c2\sc3nc(-c4ccccc4)c(-c4ccccc4)n3c2=O)cc1OC ?
GIV Gai3 FP: 106

What do the screens show for `COc1ccc(/C=c2\sc3nc(-c4ccccc4)c(-c4ccccc4)n3c2=O)c(OC)c1OC`?
GIV Gai3 FP: 88; GIV Gai FP conf: 68; GIV-Gai AS conf: 45907

Results for CCCNC(=O)CN1C(=O)CCCc2ccccc21 ?
GIV Gai3 FP: 107; HCMV UL50-53 inh: -8

How did Nc1ncc2c(n1)CC(c1cc(F)cc(F)c1)CC2=O (stereo not drawn) do in these assays?
GIV Gai3 FP: 101; HCMV UL50-53 inh: 8

How did O=C1CCCC(O)=C1C=NCCCn1ccnc1 do in these assays?
GIV Gai3 FP: 87; Sa growth 42C: 90; HCMV UL50-53 inh: -19; GIV Gai FP conf: 66; GIV-Gai AS conf: 3828*

Results for O=C1CCCC(O)=C1C=Nc1ccc(N=CC2=C(O)CCCC2=O)cc1 ?
GIV Gai3 FP: 101; Sa growth 42C: 101; HCMV UL50-53 inh: -13

How did Cc1[nH]c(=O)[nH]c(=O)c1S(=O)(=O)NCCO do in these assays?
GIV Gai3 FP: 103; HCMV UL50-53 inh: -10

Results for O=c1[nH]c(NCCO)c(I)c(=O)[nH]1 ?
GIV Gai3 FP: 57*; Sa growth 42C: 102; HCMV UL50-53 inh: 67*; GIV Gai FP conf: 43*; GIV-Gai AS conf: 2885*

What do the screens show for `O=C1C2CC=C(Cl)CC2C(=O)N1CN(Cc1ccccc1)CN1C(=O)C2CC=C(Cl)CC2C1=O` (stereo not drawn)?
GIV Gai3 FP: 105

What do the screens show for `Oc1ccc(NCc2cccs2)cc1`?
GIV Gai3 FP: 104; Sa growth 42C: 78; HCMV UL50-53 inh: -10

Results for Cc1ccc(CNc2ccc(O)cc2)s1 ?
GIV Gai3 FP: 75*; Sa growth 42C: 68; HCMV UL50-53 inh: 21; GIV Gai FP conf: 50*; GIV-Gai AS conf: 9116*

How did Cc1ccc(-c2cc(C(=O)N3CCc4ccccc4C3)c(C)[nH]2)cc1C do in these assays?
GIV Gai3 FP: 101
